Results reported in ChEMBL document CHEMBL1151069, “Analogs of an endothelin antagonist RES-701-1: substitutions of C-terminal amino acid” (Bioorg Med Chem Lett, 1996).

Target: T1, Endothelin receptor type B (Bos taurus, UniProt P28088)
T1 sequence (P28088 whole entry): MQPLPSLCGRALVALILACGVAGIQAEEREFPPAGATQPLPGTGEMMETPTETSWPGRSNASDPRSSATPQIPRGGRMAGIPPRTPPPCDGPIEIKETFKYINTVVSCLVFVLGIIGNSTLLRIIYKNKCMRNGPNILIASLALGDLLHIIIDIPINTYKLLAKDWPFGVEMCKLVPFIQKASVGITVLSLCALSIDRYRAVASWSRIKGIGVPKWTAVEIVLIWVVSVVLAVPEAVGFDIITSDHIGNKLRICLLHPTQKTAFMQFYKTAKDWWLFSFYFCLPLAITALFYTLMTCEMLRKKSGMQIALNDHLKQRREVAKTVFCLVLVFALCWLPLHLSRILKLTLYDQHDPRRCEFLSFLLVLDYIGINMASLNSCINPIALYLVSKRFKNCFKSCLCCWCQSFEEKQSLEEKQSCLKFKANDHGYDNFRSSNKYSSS
Assay: Binding activity against Endothelin B receptor expressed from bovine cerebellum membrane preparation
Format: tissue-based

SMILES | IC50
C[C@@H]1NC(=O)[C@@H]([C@@H](C)O)NC(=O)CNC(=O)[C@@H](Cc2cnc[nH]2)NC(=O)[C@H](Cc2c[nH]c3ccccc23)NC(=O)[C@@H](CC(N)=O)NC(=O)CNC(=O)C[C@H](C(=O)N[C@@H](Cc2c[nH]c3ccccc23)C(=O)N[C@@H](Cc2ccccc2)C(=O)N[C@@H](Cc2ccccc2)C(=O)N[C@@H](CC(N)=O)C(=O)N[C@@H](Cc2ccc(O)cc2)C(=O)N[C@@H](Cc2ccc(O)cc2)C(=O)N[C@@H](Cc2c[nH]c3ccccc23)C(=O)O)NC(=O)[C@H]2CCCN2C1=O | 7.3 nM
C[C@@H]1NC(=O)[C@@H]([C@@H](C)O)NC(=O)CNC(=O)[C@@H](Cc2c[nH]cn2)NC(=O)[C@H](Cc2c[nH]c3ccccc23)NC(=O)[C@@H](CC(N)=O)NC(=O)CNC(=O)C[C@H](C(=O)N[C@@H](Cc2c[nH]c3ccccc23)C(=O)N[C@@H](Cc2ccccc2)C(=O)N[C@@H](Cc2ccccc2)C(=O)N[C@@H](CC(N)=O)C(=O)N[C@@H](Cc2ccc(O)cc2)C(=O)N[C@H](Cc2ccc(O)cc2)C(=O)N[C@@H](Cc2c[nH]c3ccccc23)C(=O)O)NC(=O)[C@H]2CCCN2C1=O | > 98 nM
